Experimental data taken from PMC4580473.

Protein sequences, listed by entry. Tags and fused reporters are not part of them. Residues count along the entry.
UniProt P33981, 510-857 limits assumed: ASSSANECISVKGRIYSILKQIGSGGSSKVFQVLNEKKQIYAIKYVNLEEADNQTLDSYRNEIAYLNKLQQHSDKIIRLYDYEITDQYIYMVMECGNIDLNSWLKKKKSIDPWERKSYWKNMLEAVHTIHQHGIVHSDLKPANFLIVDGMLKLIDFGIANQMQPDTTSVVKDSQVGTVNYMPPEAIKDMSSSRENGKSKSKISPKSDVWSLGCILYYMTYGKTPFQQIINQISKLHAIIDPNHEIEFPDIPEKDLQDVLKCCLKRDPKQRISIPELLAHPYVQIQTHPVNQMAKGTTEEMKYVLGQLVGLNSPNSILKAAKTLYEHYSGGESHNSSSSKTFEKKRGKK
UniProt Q8TD08, whole entry: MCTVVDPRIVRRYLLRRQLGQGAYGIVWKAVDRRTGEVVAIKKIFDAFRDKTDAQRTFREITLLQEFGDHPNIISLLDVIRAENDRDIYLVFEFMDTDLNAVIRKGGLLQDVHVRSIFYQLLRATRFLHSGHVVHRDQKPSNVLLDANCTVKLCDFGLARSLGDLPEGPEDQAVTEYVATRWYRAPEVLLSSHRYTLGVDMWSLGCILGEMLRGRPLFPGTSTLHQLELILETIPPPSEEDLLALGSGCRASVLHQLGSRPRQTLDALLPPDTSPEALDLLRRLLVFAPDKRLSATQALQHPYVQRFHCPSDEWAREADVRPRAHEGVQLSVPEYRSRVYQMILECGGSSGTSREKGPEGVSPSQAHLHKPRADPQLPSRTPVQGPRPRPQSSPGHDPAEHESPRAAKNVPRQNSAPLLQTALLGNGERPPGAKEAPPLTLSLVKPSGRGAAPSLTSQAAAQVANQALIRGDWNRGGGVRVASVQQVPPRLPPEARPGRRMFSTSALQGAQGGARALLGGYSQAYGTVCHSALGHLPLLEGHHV
UniProt P45983, whole entry: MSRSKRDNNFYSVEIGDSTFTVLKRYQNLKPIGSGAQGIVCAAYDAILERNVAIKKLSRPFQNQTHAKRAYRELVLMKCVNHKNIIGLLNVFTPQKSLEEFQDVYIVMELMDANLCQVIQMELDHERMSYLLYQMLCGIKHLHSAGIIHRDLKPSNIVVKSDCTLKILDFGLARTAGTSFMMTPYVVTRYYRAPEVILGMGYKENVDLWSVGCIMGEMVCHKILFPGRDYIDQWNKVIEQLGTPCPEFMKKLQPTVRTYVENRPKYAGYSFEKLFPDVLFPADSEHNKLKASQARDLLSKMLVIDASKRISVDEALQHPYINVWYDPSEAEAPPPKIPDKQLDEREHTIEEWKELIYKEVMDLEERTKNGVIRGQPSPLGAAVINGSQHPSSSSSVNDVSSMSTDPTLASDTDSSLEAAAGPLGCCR
UniProt O60285, whole entry: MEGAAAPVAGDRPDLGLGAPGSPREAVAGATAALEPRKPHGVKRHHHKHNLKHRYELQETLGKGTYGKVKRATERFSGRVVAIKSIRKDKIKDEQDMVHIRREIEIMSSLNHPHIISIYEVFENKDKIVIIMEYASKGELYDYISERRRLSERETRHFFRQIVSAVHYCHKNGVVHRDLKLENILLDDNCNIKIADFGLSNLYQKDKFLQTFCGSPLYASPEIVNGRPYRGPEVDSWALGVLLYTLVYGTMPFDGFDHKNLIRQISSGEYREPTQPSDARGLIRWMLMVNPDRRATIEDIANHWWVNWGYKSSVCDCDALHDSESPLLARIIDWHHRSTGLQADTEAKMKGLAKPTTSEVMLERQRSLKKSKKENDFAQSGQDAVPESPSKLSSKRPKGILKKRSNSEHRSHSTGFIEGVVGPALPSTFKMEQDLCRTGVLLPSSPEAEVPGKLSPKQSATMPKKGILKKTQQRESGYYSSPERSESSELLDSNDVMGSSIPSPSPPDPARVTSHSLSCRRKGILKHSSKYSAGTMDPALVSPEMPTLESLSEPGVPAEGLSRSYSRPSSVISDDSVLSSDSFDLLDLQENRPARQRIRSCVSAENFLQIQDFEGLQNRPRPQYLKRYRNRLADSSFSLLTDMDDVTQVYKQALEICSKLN
UniProt O43318, whole entry: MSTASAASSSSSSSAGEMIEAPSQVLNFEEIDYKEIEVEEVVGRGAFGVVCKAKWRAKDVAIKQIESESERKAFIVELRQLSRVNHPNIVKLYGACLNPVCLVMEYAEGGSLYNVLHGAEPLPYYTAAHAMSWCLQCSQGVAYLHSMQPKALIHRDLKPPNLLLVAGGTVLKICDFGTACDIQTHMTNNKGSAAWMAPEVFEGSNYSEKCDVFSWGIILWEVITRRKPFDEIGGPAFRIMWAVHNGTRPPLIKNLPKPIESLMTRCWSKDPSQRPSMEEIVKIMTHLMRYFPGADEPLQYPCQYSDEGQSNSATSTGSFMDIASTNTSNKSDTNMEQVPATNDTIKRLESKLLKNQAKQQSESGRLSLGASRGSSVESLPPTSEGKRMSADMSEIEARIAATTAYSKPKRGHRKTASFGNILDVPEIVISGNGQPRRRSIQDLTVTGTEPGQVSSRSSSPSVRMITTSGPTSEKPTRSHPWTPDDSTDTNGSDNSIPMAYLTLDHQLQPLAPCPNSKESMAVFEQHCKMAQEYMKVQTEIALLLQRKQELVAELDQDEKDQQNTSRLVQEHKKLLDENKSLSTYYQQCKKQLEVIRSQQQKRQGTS

Assays:
Mps1 = Mps1 (Homo sapiens, UniProt P33981); test: mobility shift kinase assay (Caliper LabChip3000), Morrison tight-binding fit
ERK7 = ERK7 (Homo sapiens, UniProt Q8TD08); test: kinase panel, single concentration (% inhibition at […], Km ATP)
JNK2 = JNK2 (Homo sapiens, UniProt P45984); test: kinase panel at […], then 10-point Caliper mobility-shift dose-response
JNK1 = JNK1 (Homo sapiens, UniProt P45983); test: as above
NUAK1 = NUAK1 (Homo sapiens, UniProt O60285); test: as above
TAK1 = TAK1 (Homo sapiens, UniProt O43318); test: as above

For `Cc1nc(N2CCOCC2)ccc1Nc1nc(NC2CCOCC2)c2c(C#N)c[nH]c2n1`, the Ki (Mps1) was 0.27 nM, the % inhibition at 1000 nM (ERK7) was 81% and the IC50 (JNK2) was 89 nM. For the same compound, the IC50 (JNK1) was 220 nM and the IC50 (NUAK1) was 160 nM.

`Cc1nc(N2CCOCC2)ccc1Nc1nc(NC(C)(C)CO)c2c(C#N)c[nH]c2n1` gave a Ki (Mps1) of 0.33 nM, an IC50 (JNK2) of 28 nM and an IC50 (TAK1) of 290 nM. The IC50 (JNK1) was 42 nM and the IC50 (NUAK1) was 52 nM.
